Compounds with a hit are over-represented: about 4.2% of the library has one in this group of screens.
HDAC3 inhib: inhibitors of human histone deacetylase 3 | O15379 | recombinant HDAC3, fluorogenic peptide/trypsin coupled, fluorescence | inhibition, % at 8.3 µM | 320,000 compounds, 0.15% hits; in the data active = inhibition above about 26%, passing the limit was not always enough
NALP1 yeast inh: NALP1 inhibition; S. cerevisiae NALP1/ASC/caspase-1 growth, X-gal OD620, 72 h; AID 2071; inhibition, % at 10 µM; 280,000 compounds, 0.61% hits; in the data active = inhibition mostly above about 24%, no sharp cut-off; inactive = mostly below about 32%
MC4R antagonist: antagonists of human melanocortin 4 receptor (MC4R). P32245. MC4R-expressing cells, MTII-stimulated cAMP, LANCE TR-FRET. inhibition, % at 6.5 µM. 360,000 compounds, 0.48% hits. AID 540295;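 active = inhibition above its plate's cutoff, the mean of tested wells on that plate plus 3 SD, cut at about 29% in these data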;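 also: 0% = Melanotan II alone and 100% = Melanotan II plus saturating MCL0020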
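Assay system: U2OS-MC4R stable cell line; Also added: Melanotan II; Technique: Eu-cAMP/anti-cAMP TR-FRET, emission 671 nm; Times: 30-min compound, 1-h challenge, 1-h detection, room temperature.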
MC4R ag barr: human MC4R agonism via beta-arrestin; AID 540308; U2OS MC4R beta-arrestin complementation, luminescence; percent of melanotan II response, DMSO zero; 360,000 compounds, 0.98% hits; activation, % at 8.9 µM;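 active = activation above a per-plate cutoff, the mean activation of sample wells on that plate plus 3 SD, cut at about 8% in these data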
UUG fidelity: alters start codon recognition fidelity in yeast | S. cerevisiae UUG-firefly luciferase reporter, luminescence/redox ratio | activity score, % at 18.7 µM | 350,000 compounds, 0.13% hits | AID 602363;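 active = replicate mean at a twofold rise or more, about +100% in these data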;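 note: firefly luciferase made from a UUG start codon reports start codon fidelity; reporter light over untreated wells divided by growth signal over untreated wells; some hits fall short of that in this replicate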
ALR H2O2 inh: inhibitors of human sulfhydryl oxidase ALR; AID 485317; purified ALR, DTT oxidation, H2O2 HRP-luminol luminescence; inhibition, % (concentration not given with the values); P55789; hit rate 3.8% among 290,000;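 active = mean and each replicate at 75% or more; inconclusive = only one of the two met; inactive = neither met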;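 note: stock transfer was 7.5 nL into about 7.5 µL; 0% = neutral wells and 100% = wells with inactivated enzyme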
Active calls of the source: *; · = no result given.

Second line of a record – HDAC3 inhib, NALP1 yeast inh, MC4R antagonist, MC4R ag barr, UUG fidelity, ALR H2O2 inh
1: C[C@H]1CN([C@@H](C)CO)C(=O)c2cc(C#Cc3ccncc3)cnc2O[C@@H]1CN(C)CC1CCCCC1
→ ·, ·, ·, ·, -8.4, ·
2: CCN(c1ccc(NC(=O)CSc2nnc3nc(C)cc(C)n23)cc1)C(C)C
→ 4.6, 7.8, -6.6, -1.2, 1.4, 98.9*
3: Cc1cc(C)n2c(SCC(=O)Nc3ccc(F)cc3)nnc2n1
→ -3.5, 10.5, 5.1, -1.3, -17.1, -2.2
4: CCN(c1ccc(NC(=O)CSCc2c(C)noc2C)cc1)C(C)C
→ 0.1, ·, 5.7, -0.4, -16.5, 99.2*
5: C[C@H]1CN([C@@H](C)CO)C(=O)c2cc(/C=C/c3ccccc3)cnc2O[C@@H]1CN(C)S(=O)(=O)c1ccccc1
→ ·, ·, ·, ·, 3.7, ·
6: C[C@@H]1CN([C@@H](C)CO)C(=O)c2cc(-c3ccc(F)cc3)cnc2O[C@@H]1CN(C)C(=O)C1CCC1
→ ·, ·, ·, ·, 17.2, ·
7: CC(C)n1c(=S)[nH]c2scc(-c3cccs3)c2c1=O
→ -2.8, 4.8, 8.9, -1.6, -16.0, 89.8*
8: CCn1c(=S)[nH]c2scc(-c3cccs3)c2c1=O
→ ·, -12.8, 20.2, -4.5, ·, ·
9: CCCc1cn(CC[C@H]2CC[C@@H](NS(=O)(=O)c3ccccc3Cl)[C@H](CO)O2)nn1
→ ·, ·, ·, ·, -0.4, ·
10: CC1(C)CC(=O)C2=C(C1)N(Cc1ccco1)C(=O)C2(NC(=O)c1ccc(Cl)cc1Cl)C(F)(F)F (stereo unspecified)
→ 2.3, -1.0, -4.2, -1.5, -6.7, 98.0*
11: O=C(CC1CC1)Nc1ccc2c(c1)[C@H]1C[C@@H](CC(=O)NC3CCCC3)O[C@@H](CO)[C@H]1O2
→ ·, ·, ·, ·, -2.8, ·
12: Cc1ccc(CNc2nc(C)nc3sc4c(c23)CCC4)cc1
→ -11.3, 1.3, -7.0, 2.7, -17.5, -2.5
13: Cc1nc(Nc2ccc(O)cc2)c2c3c(sc2n1)CCCC3
→ -0.1, -8.1, 4.2, 4.9, 6.5, 98.3*
14: CSc1nccc(-c2sc(SC)c(C#N)c2-c2ccccc2)n1
→ 1.7, -2.6, 12.1, -0.8, ·, -5.9
15: CSc1sc(-c2ccnc(=S)[nH]2)c(-c2ccccc2)c1C#N
→ 2.8, 2.4, 20.6, -1.6, 2.0, 96.0*
16: CCNC(=O)C[C@H]1C=C[C@H](NC(=O)NC2CCCCC2)[C@H](CO)O1
→ ·, ·, ·, ·, -28.8, ·
17: CCN1CCN(C(=S)Nc2ccc(Cl)c(Cl)c2)CC1
→ -1.5, 50.8*, 5.8, -1.8, -20.1, 3.1
18: CCN1CCN(C(=S)Nc2cccc(Cl)c2)CC1
→ -2.8, -7.0, -0.6, 5.3, -6.9, -2.9
19: CCN1CCN(C(=O)Nc2ccc(Cc3ccc(NC(=O)N4CCN(CC)CC4)cc3)cc2)CC1
→ -1.7, -25.5, 1.6, -1.1, 0.3, 98.7*
20: Cc1ccc(S(=O)(=O)Nc2ccc3c(c2)C(=O)N(C)[C@H]2CC[C@H](CC(=O)O)O[C@@H]2CO3)cc1
→ ·, ·, ·, ·, 5.3, ·
21: CC1CCCN(CCCOc2ccc(Cl)cc2Br)C1 (stereo unspecified)
→ 0.6, 49.7*, -7.6, 0.4, ·, -2.3
22: C[C@@H]1CN([C@H](C)CO)C(=O)c2cccc(NC(=O)NC3CCCCC3)c2O[C@@H]1CN(C)C(=O)Nc1ccc(C(F)(F)F)cc1
→ 28.4*, ·, 11.7, -1.5, -6.9, 0.8
23: COc1ccc(S(=O)(=O)N(C)C[C@@H]2Oc3c(NC(=O)Nc4ccc(C(F)(F)F)cc4)cccc3C(=O)N([C@@H](C)CO)C[C@H]2C)cc1
→ ·, ·, ·, ·, -1.6, ·
24: COc1ccc(S(=O)(=O)N(C)C[C@H]2Oc3c(NC(=O)Nc4ccc(C(F)(F)F)cc4)cccc3C(=O)N([C@H](C)CO)C[C@@H]2C)cc1
→ 32.3*, ·, 13.2, -1.9, -16.9, -2.1
25: CN1/C(=C\C=C(/C#N)C(=O)Nc2ccccc2F)C(C)(C)c2ccccc21
→ 9.4, 3.7, 12.0, -1.4, ·, -16.1
26: CN1/C(=C/C=C(/C#N)C(N)=O)C(C)(C)c2ccccc21
→ 17.1, 1.1, -20.4, -2.5, -10.1, 92.0*
27: CCC(=O)c1ccc(OC(=O)c2cccs2)cc1
→ 62.3*, ·, -4.3, -1.9, -12.9, ·
28: COC(=O)c1ccc(OC(=O)c2cccs2)cc1
→ 63.0*, -0.7, 17.2, -1.7, ·, -0.6
29: COC(=O)c1ccc(OC(=O)c2ccco2)cc1
→ 55.6*, 13.2, -5.3, -1.0, -9.8, 1.7
30: CCc1ccc(C(=O)COC(=O)c2cccs2)cc1
→ 2.1, 16.2, 7.4, 0.1, -80.1, 0.7
31: N/C(=N\OC(=O)c1cccs1)c1ccccc1
→ 6.5, 36.4, -3.8, -0.3, -52.7, -7.7
32: Cc1ccc(/C(N)=N/OC(=O)c2cccs2)cc1
→ -2.8, 45.1, 0.0, 3.3, -11.3, 86.2*
33: CCCc1ccc(-c2c(C)sc(N)c2C#N)cc1
→ 8.8, 45.5, 3.1, 3.8, -6.5, 91.7*
34: Cc1ccc(S(=O)(=O)N(C)C[C@H]2Oc3ccc(NC(=O)c4ccncc4)cc3CC(=O)N([C@@H](C)CO)C[C@H]2C)cc1
→ ·, ·, ·, ·, -4.5, ·
35: CSc1ccc(CNc2ncc(-c3cccc([N+](=O)[O-])c3)n2C)cc1
→ -3.5, 9.8, 11.7, 4.2, -6.2, 98.1*
36: COc1ccc(CNc2ncc(-c3cccc([N+](=O)[O-])c3)n2C)c(OC)c1OC
→ 2.0, -3.5, 8.7, 1.3, -10.8, 98.4*
37: Cc1ccc(NCN2C(=O)C3C4CCC(C4)C3C2=O)cc1 (stereo unspecified)
→ 3.8, 22.9, ·, ·, ·, 14.0
38: O=C1C2C3C=CC(C3)C2C(=O)N1CNc1ccc(O)cc1 (stereo unspecified)
→ -5.9, 24.0, ·, ·, ·, 99.1*
39: CC(=O)Nc1ccc(NCN2C(=O)C3C4CCC(C4)C3C2=O)cc1 (stereo unspecified)
→ -2.0, 1.2, 2.7, -0.9, -33.6, 84.6*
40: Cc1ccc(NCN2C(=O)C3C4C=CC(C4)C3C2=O)cc1 (stereo unspecified)
→ -11.9, -14.1, 16.2, -1.6, -6.2, 61.5
41: COC(=O)C[C@H]1CC[C@@H]2[C@@H](COc3ccc(NC(=O)c4cccc(F)c4)cc3C(=O)N2C)O1
→ ·, ·, ·, ·, 1.2, ·
42: CO[C@H]1CN(C)C(=O)c2ccc(NC(=O)C3CC3)cc2OC[C@H](C)N(C)C[C@H]1C
→ ·, ·, ·, ·, -27.2, ·
43: Cc1cc(N2CCC(C(=O)NC3CC3)CC2)nc(-c2ccccc2)n1
→ 3.4, -15.3, 3.2, 0.9, -5.5, -15.4
44: CC(=O)NC1(c2ccccc2)CCN(c2cc(C)nc(-c3ccccc3)n2)CC1
→ 1.1, 39.9*, -4.3, 1.2, -7.2, 5.0
45: COc1ccc(C(=O)C(CCCCC(CN(C)C)C(=O)c2ccc(OC)cc2)CN(C)C)cc1 (stereo unspecified)
→ 14.1, 24.8*, -4.8, 0.3, -0.1, -3.3
46: CCOc1ccc(C(=O)C(CCC(CN(C)C)C(=O)c2ccc(OCC)cc2)CN(C)C)cc1 (stereo unspecified)
→ ·, 47.6*, 2.9, 9.5*, ·, ·
47: COc1ccc(C(=O)CC(=O)c2ccc(OC)cc2)cc1
→ -0.9, 9.3, -2.3, 0.8, 3.5, -2.4
48: O=C(c1ccccc1)C(CCc1ccccn1)CCc1ccccn1
→ ·, ·, 3.8, -1.4, -13.9, ·
49: CN(C)CC(CCC(CN(C)C)C(=O)c1ccccc1)C(=O)c1ccccc1 (stereo unspecified)
→ ·, 26.3*, -20.8, -1.2, ·, ·

A draw from above in order of number of heavy atoms, largest number first.
Second line of a record – HDAC3 inhib, NALP1 yeast inh, MC4R antagonist, MC4R ag barr, UUG fidelity, ALR H2O2 inh
46: CCOc1ccc(C(=O)C(CCC(CN(C)C)C(=O)c2ccc(OCC)cc2)CN(C)C)cc1 (stereo unspecified)
→ ·, 47.6*, 2.9, 9.5*, ·, ·
42: CO[C@H]1CN(C)C(=O)c2ccc(NC(=O)C3CC3)cc2OC[C@H](C)N(C)C[C@H]1C
→ ·, ·, ·, ·, -27.2, ·
49: CN(C)CC(CCC(CN(C)C)C(=O)c1ccccc1)C(=O)c1ccccc1 (stereo unspecified)
→ ·, 26.3*, -20.8, -1.2, ·, ·
48: O=C(c1ccccc1)C(CCc1ccccn1)CCc1ccccn1
→ ·, ·, 3.8, -1.4, -13.9, ·
47: COc1ccc(C(=O)CC(=O)c2ccc(OC)cc2)cc1
→ -0.9, 9.3, -2.3, 0.8, 3.5, -2.4

Compound activity from PubChem BioAssay.
